For experiment [1], the system named is HCT116 cells transfected with the antibody-CPG2 fusion protein gene. The note with it: read-out: IC50 (concentration required to inhibit cell growth by 50%); transfected HCT116, 1 hr exposure, three further days.
The subject of experiment [2] is non-transfected HCT116 cells. As to the kind of experiment: In vitro cell growth inhibition (SRB), non-transfected HCT116. The class given is cell-based. The note with it: read-out: IC50 (concentration required to inhibit cell growth by 50%); non-transfected HCT116, 1 hr exposure, three further days.

Regarding `Oc1ccc(N(CCCl)CCCl)cc1`, the IC50 in experiment [1] and in experiment [2] was 1000 nM throughout.

Values taken from patent US6339070B1, “Gene construct encoding a heterologous prodrug-activating enzyme and a cell targeting moiety” (Zeneca Limited, priority 1997, dated 2002).
